Literature values in patent US20120107282A1, “NEURAL STEM CELL COMPOSITION CAPABLE OF TREATING CANCER AND METHOD OF TREATMENT” (S. BIOMEDICS CO., LTD., priority 2010, published 2012).

Tested on: cultured human glioma cells
Conditions: glioma cell growth

B1: IFN-β: exogenous interferon-β, a type I IFN (protein, UniProt P01574 22-187, looked up)
Interferon beta: MSYNLLGFLQRSSNFQCQKLLWQLNGRLEYCLKDRMNFDIPEEIKQLQQFQKEDAALTIYEMLQNIFAIFRQDSSSTGWNETIVENLLANVYHQINHLKTVLEEKLEKEDFTRGKLMSSLHLKRYYGRILHYLKAKEYSHCAWTIVRVEILRNFYFINRLTGYLRN
- increase in the concentration required to obtain a similar inhibitory effect as IFN-β gene transfer: 40 fold
